The values below come from ChEMBL document CHEMBL1124741, “Probes for narcotic receptor mediated phenomena. 17. Synthesis and evaluation of a series of trans-3,4-dichloro-N-methyl-N-[2-(1-pyrrolidinyl)cyclohexyl]benzeneacet amide (U50,488) related isothiocyanate derivatives as opioid receptor affinity ligands” (1990).

Chains of the proteins cited; added tags and fusions are not shown.
UniProt P41144, whole entry: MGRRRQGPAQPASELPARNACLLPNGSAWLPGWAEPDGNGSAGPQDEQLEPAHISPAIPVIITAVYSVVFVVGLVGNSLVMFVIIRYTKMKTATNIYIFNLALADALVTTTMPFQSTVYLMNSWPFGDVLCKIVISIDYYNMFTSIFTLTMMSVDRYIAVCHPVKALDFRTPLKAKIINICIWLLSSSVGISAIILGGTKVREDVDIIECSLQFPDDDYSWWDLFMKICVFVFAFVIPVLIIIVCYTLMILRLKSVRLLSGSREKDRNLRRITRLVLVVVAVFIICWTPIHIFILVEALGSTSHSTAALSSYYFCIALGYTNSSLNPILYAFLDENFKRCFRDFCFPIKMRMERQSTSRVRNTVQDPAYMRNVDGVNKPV
UniProt P34975, whole entry: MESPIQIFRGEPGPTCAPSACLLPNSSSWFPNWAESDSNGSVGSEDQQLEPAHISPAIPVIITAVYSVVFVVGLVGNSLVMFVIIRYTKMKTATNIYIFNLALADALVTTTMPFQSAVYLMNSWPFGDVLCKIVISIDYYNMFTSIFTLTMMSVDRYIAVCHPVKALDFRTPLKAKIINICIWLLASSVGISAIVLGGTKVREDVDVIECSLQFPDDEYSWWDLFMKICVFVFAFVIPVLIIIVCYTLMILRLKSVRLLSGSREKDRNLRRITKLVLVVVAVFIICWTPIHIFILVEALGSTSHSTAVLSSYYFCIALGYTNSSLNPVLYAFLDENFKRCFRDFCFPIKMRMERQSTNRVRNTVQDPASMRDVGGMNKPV
UniProt P33533, whole entry: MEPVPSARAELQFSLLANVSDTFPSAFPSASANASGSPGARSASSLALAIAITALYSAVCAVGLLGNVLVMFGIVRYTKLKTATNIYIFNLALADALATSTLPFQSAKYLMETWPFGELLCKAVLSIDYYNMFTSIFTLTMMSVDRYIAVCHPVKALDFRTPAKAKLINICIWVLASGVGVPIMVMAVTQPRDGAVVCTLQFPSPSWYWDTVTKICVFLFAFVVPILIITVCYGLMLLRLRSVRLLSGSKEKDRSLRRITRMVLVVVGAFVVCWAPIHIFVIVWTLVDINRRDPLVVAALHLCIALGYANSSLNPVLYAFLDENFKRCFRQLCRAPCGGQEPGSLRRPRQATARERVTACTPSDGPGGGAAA
UniProt P33535, whole entry: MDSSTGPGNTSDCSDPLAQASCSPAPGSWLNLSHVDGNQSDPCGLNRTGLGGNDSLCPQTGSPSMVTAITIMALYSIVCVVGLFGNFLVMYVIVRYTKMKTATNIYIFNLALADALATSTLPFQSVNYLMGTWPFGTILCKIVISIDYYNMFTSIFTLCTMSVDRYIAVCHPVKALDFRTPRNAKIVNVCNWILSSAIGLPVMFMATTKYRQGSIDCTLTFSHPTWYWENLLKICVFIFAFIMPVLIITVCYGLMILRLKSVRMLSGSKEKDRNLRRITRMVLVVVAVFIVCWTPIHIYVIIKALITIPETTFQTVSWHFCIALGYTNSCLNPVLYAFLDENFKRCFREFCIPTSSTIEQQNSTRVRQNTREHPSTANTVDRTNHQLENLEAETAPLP

In experiment [1] the target is Kappa-type opioid receptor (Cavia porcellus) (UniProt P41144). In words: Inhibitory activity against kOpioid receptor kappa 1 of guinea pig brain using [3H]U-69593 expressed as percent reduction in binding of the control at 1 uM.
Experiment [2] shares this target. Description: In vitro inhibition of [3H]U-69593 binding to Opioid receptor kappa 1 of guinea pig brain. The following applies: concentration not given here.
For experiment [3], the target named is Kappa-type opioid receptor (Rattus norvegicus) (UniProt P34975). In words: In vitro inhibitory activity against Opioid receptor kappa 1 of rat brain membrane using [3H]BREM as radioligand. Particulars: concentration not given here.
The target of experiment [4] is Delta-type opioid receptor (Rattus norvegicus) (UniProt P33533). Description: Inhibitory activity against dOpioid receptor delta 1 of rat brain membrane using [3H]DADLE expressed as percent reduction in binding of the control at 1 uM.
Experiment [5] has the same target. In words: In vitro inhibitory activity against Opioid receptor delta 1 of rat brain membrane using [3H]DADLE as radioligand. Particulars: concentration not given here.
Experiment [6] addresses Mu-type opioid receptor (Rattus norvegicus) (UniProt P33535). In words: In vitro inhibitory activity against Opioid receptor mu 1 of rat brain membrane using [3H]FOXY as radioligand. Particulars: concentration not given here.
The target of experiment [7] is Kappa-type opioid receptor (Cavia porcellus) (UniProt P41144). Description: In vitro inhibitory activity against Opioid receptor kappa 1 of guinea pig brain using [3H]-BREM as radioligand. Particulars: concentration not given here.
The target of experiment [8] is Mu-type opioid receptor (Rattus norvegicus) (UniProt P33535). In words: Inhibitory activity against Opioid receptor mu 1 of rat brain membrane using [3H]FOXY expressed as reduction in binding of control value at 1 uM.
The target in experiment [9] is Kappa-type opioid receptor (Cavia porcellus) (UniProt P41144). Description: In vivo binding affinity of [3H]U-69593 to Opioid receptor kappa 1 after intracerebroventricular injection ( 100 ug of compound dissolved in 10 uL of Dimethyl sulfoxide ) in guinea pig brain.
For experiment [10] the target is unchanged. In words: In vitro inhibitory activity against Opioid receptor kappa 1 of rat brain membrane using [3H]-BREM as radioligand.
Experiment [11] has the same target. Description: In vivo binding affinity of [3H]bremazocine to Opioid receptor kappa 1 after intracerebroventricular injection ( 100 ug of compound dissolved in 10 uL of Dimethyl sulfoxide ) in guinea pig brain.

Turning to `CN(C(=O)Cc1cccc(N=C=S)c1)[C@H]1CCCC[C@@H]1N1CCCC1`, the Reduction worked out at 76.7% in experiment [1] and 42.9% in experiment [4]. The inhibition (usually the relative decrease from the control value, in per cent) is below 49.6% in experiment [2]; 93% in experiment [3]; below 82.4% in experiment [5]; 107% in experiment [6]; 102% in [7].
Regarding `CN(C(=O)Cc1ccc(N=C=S)cc1)[C@@H]1CCCC[C@H]1N1CCCC1`, the inhibition in experiment [2] was determined as 94.7%; in [3] it was 87.6%; in experiment [5] it was 113%; in experiment [6] it was 124%; in experiment [7] it was 108%.
In the case of `CN(C(=O)Cc1cccc(N)c1)[C@H]1CCCC[C@@H]1N1CCCC1`, in experiment [2], the inhibition was determined as 86.8%.
The same measure, in the same setting: with `CN(C(=O)Cc1cccc(N)c1)[C@@H]1CCCC[C@H]1N1CCCC1` the figure was 110%.
For `CN(C(=O)Cc1ccccc1N=S)[C@@H]1CCCC[C@H]1N1CCCC1`, the inhibition in [2] was 95.9%; in [3], 91.9%; in [5], below 89%; in [6] it was below 69%; in experiment [7], 108%. In addition, the Reduction in [8] was found to be 69%.
As to `CN(C(=O)Cc1ccccc1N=S)[C@H]1CCCC[C@@H]1N1CCCC1`, the Specific binding in experiment [9] was 12.3 fM/mg; in experiment [10], 167 fM/mg. Also, the inhibition in [2] was 11.2%; in [3] it was 98.1%; in experiment [5] it was 100%; in [6], 119%; in [7] it was 97.6%. In [11], this compound returned a Reduction of 72.2%.
With `CN(C(=O)Cc1ccc(N=C=S)cc1)[C@H]1CCCC[C@@H]1N1CCCC1`, the inhibition in [2] is below 70.4%; in [3], below 79.7%; in [5] it was below 42.9%; in [6] it was 109%; in experiment [7], 92.1%.
As for `CN(C(=O)Cc1cccc(N=C=S)c1)[C@@H]1CCCC[C@H]1N1CCCC1`, the inhibition amounted to 93.6% in [2]; 97.1% in [3]; 92.3% in [5]; 104% in [6]; 110% in [7].
With `CN(C(=O)Cc1ccccc1N)[C@H]1CCCC[C@@H]1N1CCCC1`, the inhibition in [2] is 96.6%.
Turning to `CN(C(=O)Cc1ccccc1N)[C@@H]1CCCC[C@H]1N1CCCC1`, the inhibition in experiment [2] turned out to be 95%.
On the same count and under the same terms, then `CN(C(=O)Cc1ccc(N)cc1)[C@H]1CCCC[C@@H]1N1CCCC1`, with 88%.
Same read-out and setting: with `CN(C(=O)Cc1ccc(N)cc1)[C@@H]1CCCC[C@H]1N1CCCC1` the figure was 94.6%.
